Measured values reported in PubChem BioAssay AID1508611 (The Scripps Research Institute Molecular Screening Center, 2020).
The list shows a part of the results, in another mix than the full data. Active and inactive are the calls of the source.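 How the source made its calls: active means mean percent activation in the counterscreen above 29.09%; inactive means the rest.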

Sequences of proteins named here, by UniProt entry; tags and fusion partners are left off.
UniProt Q8TDV5, whole entry: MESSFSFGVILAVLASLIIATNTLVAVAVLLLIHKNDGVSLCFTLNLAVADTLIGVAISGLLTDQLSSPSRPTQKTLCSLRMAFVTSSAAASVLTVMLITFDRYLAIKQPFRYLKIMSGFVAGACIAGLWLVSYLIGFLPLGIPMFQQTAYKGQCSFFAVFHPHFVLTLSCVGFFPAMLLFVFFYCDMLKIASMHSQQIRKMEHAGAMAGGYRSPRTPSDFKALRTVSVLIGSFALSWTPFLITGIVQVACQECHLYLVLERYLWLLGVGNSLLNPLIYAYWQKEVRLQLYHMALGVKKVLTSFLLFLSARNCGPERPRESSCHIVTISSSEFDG

molecular target: Glucose-dependent insulinotropic receptor (Homo sapiens) (UniProt Q8TDV5); assay: GPR119 activators in beta-arrestin cells, counter-screen for GPR151 activator project, cell-based, PathHunter beta-arrestin, luminescence, triplicate (AID 1508611); settings: 90 min, at 11.2 µM, active compounds read high, 0 = compound-well median, 100 = enzyme-acceptor control;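 further: counterscreen on off-target GPR119 to flag nonselective hits from the GPR151 activator screen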

Compound | activation
CP(=O)(O)Oc1cccc(Cl)c1Cl | inactive: 7.09%
CP(=O)(Nc1ccccn1)Oc1ccc(Cl)cc1 (configuration not stated) | inactive: 6.14%
